Results published in ChEMBL document CHEMBL1275333, “Identification of non-peptide malignant brain tumor (MBT) repeat antagonists by virtual screening of commercially available compounds” (J Med Chem, 2010).

Amino acid sequences for entries named in this document (tags omitted).
UniProt Q05BQ5, whole entry: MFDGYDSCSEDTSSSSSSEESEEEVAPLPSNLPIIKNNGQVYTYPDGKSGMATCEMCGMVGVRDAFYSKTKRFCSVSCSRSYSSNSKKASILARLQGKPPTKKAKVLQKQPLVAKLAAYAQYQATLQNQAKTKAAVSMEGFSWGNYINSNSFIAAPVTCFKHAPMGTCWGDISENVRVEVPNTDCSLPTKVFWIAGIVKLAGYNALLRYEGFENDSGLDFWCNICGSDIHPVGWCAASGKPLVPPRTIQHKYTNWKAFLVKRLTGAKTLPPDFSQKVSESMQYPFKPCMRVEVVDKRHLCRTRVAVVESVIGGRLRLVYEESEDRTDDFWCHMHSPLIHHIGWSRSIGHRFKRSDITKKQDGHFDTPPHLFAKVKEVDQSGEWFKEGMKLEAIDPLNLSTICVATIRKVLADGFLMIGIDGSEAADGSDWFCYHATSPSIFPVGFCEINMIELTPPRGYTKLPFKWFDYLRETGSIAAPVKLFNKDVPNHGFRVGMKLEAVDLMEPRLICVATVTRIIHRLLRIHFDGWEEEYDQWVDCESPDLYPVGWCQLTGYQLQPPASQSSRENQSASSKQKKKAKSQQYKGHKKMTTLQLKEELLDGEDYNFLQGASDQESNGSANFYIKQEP

Legend:
[1] = biological target: T1, Lethal(3)malignant brain tumor-like protein 3 (Homo sapiens, UniProt Q96JM7); assay: Inhibition of L3MBTL3 by alpha-screening
T1 sequence (Q96JM7 whole entry): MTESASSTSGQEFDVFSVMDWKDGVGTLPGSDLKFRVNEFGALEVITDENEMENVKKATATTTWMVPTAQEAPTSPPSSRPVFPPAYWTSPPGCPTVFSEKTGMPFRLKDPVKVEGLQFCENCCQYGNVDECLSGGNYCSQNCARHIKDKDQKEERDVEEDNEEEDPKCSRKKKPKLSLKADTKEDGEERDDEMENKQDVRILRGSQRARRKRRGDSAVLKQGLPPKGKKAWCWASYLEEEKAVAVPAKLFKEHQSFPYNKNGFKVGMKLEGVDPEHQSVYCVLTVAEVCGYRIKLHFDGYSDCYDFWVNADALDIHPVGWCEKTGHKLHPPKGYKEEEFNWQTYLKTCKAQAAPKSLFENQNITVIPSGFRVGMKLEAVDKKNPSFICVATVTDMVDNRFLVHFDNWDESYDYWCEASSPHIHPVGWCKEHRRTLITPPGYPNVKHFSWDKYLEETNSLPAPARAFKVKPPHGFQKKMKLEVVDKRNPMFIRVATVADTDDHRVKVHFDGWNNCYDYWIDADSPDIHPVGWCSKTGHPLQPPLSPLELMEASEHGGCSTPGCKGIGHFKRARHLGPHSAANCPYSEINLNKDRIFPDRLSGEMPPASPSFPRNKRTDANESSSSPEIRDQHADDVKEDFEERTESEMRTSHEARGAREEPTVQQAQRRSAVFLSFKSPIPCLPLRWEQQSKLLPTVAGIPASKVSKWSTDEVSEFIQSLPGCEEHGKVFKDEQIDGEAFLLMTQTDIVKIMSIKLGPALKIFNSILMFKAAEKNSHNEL

[2] = biological target: MBT domain-containing protein 1 (Homo sapiens, UniProt Q05BQ5); assay: Inhibition of MBTD1 by alpha-screening
Procedure, shortened: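 AlphaScreen competition of biotinylated methyl-lysine peptide binding to MBT protein. Conditions were L3MBTL3 at 200 nM with 150 nM H2AK36me1, L3MBTL4 at 100 nM with 150 nM H2AK36Me, and MBTD1 at 100 nM with 150 nM H4Kme20. Read-out used nickel chelate acceptor and streptavidin donor beads at 5 µg/mL, or 10 µg/mL for L3MBTL4. Compounds were tested in 10-point 3-fold dilutions (5 nM–100 µM). IC50 came from 4- or 3-parameter fits.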

[3] = biological target: T2, Lethal(3)malignant brain tumor-like protein 4 (Homo sapiens, UniProt Q8NA19); assay: Inhibition of L3MBTL4 by alpha-screening
T2 sequence (Q8NA19 whole entry): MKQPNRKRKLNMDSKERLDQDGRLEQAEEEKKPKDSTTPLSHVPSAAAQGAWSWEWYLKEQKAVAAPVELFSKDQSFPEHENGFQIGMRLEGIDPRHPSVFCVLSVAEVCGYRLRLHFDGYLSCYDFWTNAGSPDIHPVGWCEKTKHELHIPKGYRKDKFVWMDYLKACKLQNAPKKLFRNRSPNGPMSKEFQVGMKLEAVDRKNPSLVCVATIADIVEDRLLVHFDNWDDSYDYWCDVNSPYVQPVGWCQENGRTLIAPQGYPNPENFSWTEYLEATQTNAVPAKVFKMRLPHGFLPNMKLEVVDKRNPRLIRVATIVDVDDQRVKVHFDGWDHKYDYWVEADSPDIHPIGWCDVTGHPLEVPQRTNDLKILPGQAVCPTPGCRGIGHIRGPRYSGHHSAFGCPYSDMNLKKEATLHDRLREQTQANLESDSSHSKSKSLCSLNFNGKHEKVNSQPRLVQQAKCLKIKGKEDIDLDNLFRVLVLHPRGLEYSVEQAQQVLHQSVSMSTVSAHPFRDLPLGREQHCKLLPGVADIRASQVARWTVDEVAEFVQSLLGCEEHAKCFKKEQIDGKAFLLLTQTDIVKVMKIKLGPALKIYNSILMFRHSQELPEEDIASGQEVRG

[4] = AlphaScreen counterscreen signal interference at 100 uM

| Compound | IC50 [1] | IC50 [2] | IC50 [3] | Activity [4] |
| --- | --- | --- | --- | --- |
| CNCCC[C@]12CC[C@H](c3ccccc31)c1ccccc12 | 85 µM | 31 µM | > 100 µM | – |
| CNCCCCOc1ccccc1Cc1ccccc1 [BIFEMELANE] | – | > 100 µM | > 100 µM | 8% |
